Assay results from ChEMBL document CHEMBL3856205, “Synthesis and biological evaluation of novel 4-hydroxytamoxifen analogs as estrogen-related receptor gamma inverse agonists” (Eur J Med Chem, 2016).

Molecular target: T1, Steroid hormone receptor ERR2 (Homo sapiens, UniProt O95718)
T1 sequence (O95718 whole entry): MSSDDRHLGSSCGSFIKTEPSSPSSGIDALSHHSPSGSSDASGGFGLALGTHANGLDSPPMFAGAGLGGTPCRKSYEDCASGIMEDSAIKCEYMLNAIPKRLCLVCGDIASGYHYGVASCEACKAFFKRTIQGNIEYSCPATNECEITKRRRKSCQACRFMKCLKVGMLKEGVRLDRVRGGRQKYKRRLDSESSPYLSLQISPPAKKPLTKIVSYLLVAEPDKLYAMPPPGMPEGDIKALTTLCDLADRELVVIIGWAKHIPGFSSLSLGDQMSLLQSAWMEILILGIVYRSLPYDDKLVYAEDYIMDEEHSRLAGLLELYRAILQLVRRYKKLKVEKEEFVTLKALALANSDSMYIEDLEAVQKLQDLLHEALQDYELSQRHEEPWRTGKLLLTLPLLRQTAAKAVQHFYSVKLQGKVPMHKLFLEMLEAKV
Assay: Inhibition of fluorescien-conjugated coactivator PGC1a binding to ERRbeta (unknown origin) after 1 hr by TR-FRET assay

CN(C)CCOc1ccc(/C(=C(/CCCO)c2ccccc2)c2ccc(O)cc2)cc1.Cl
IC50: > 10 µM
